Test system: SLC34A2-ROS dependent signaling pathways in the HCC78 cells

Structure (SMILES): C[C@@H](Oc1cc(-c2cnn(C3CCNCC3)c2)cnc1N)c1c(Cl)ccc(F)c1Cl [Crizotinib, 3-[(R)-1-(2,6-dichloro-3-fluoro-phenyl)-ethoxy]-5-(1-piperidin-4-yl-1-H -pyrazol-4-yl)-pyridin-2-ylamine]
- activated caspase-3 levels (3-hour of drug treatment, Western Blot): significant dose-dependent induction
- ROS phosphorylation (activation loop) and downstream SHP2, STAT3, AKT and ERK1/2 (3 hours of drug treatment, immunoblot): dose dependency inhibited
